According to paper PMC9425029, “Secretagogin is a Ca^2+-dependent stress-responsive chaperone that may also play a role in aggregation-based proteinopathies” (The Journal of Biological Chemistry, 2022):

Molecular target: Secretagogin (mouse SCGN) (mouse) (UniProt Q91WD9)
Experiment: ITC; ITC-200, 30 °C; SCGN 60 μM in the cell, α-synuclein 600 μM in the syringe; Chelex-purified 50 mM Tris pH 7.5, 100 mM KCl, 2 mM Ca2+; one set of sites model

Kd: 110 µM
dH: 0.00124 kcal/mol
Substance: α-synuclein (from UniProt P37840 1-140) (natural protein)
